Values quoted from earlier work, collected in US12599600B2, “Compositions and methods for preventing and treating headache through enhancing 2-arachydonyl glyerol activity” (Arizona Board of Regents on Behalf of the University of …, priority 2020, dated 2026).

Protein sequences, listed by entry. Tags and fused reporters are not part of them.
UniProt P34972, whole entry: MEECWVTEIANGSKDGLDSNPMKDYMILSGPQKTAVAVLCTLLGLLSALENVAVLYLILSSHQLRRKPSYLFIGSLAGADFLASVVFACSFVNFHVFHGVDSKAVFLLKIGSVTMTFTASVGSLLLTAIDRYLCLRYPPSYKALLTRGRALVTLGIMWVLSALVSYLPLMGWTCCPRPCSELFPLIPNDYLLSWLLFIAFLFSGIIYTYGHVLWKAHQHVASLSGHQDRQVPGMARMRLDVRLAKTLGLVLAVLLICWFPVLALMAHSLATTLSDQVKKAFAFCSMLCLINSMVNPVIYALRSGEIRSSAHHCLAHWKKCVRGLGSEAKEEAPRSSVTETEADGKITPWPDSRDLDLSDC

Tests used:
CB2R [1] = target: T1, CB2R (Homo sapiens, UniProt P34972); settings: cited from earlier work
CB2R [2] = target: T1, CB2R; settings: cited from earlier work; remark: listed apart in the source

CCCCC/C=C\C/C=C\C/C=C\C/C=C\CCCC(=O)NCCO [AEA, anandamide]
EC50 (CB2R [1]): 16 µM | Ki (CB2R [2]): 0.279 to 1.94 µM
